The values that follow come from ChEMBL document CHEMBL4038319, “Development of a Potent Inhibitor of the Plasmodium Proteasome with Reduced Mammalian Toxicity” (J Med Chem, 2017).

Amino acid sequences for entries named in this document (tags omitted). A change or cut given only in a name is not applied to a line headed by its entry.
UniProt P28074: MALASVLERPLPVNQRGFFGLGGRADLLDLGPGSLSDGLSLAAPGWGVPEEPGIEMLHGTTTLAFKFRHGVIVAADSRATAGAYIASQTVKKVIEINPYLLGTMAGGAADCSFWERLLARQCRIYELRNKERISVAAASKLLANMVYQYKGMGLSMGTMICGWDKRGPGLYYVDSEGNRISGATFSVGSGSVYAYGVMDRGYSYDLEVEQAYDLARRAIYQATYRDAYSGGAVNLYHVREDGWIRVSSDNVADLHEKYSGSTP

The target in series [1] is 20S proteasome beta5 subunit (Proteasome Macropain subunit MB1) (Homo sapiens, UniProt P28074). The series can be described thus: Irreversible inhibition of human 20S proteasome beta5 subunit using suc-LLVY-AMC as substrate after 4 hrs at 30 mins time interval by fluorescence assay. To be noted: probe suc-LLVY-AMC.
Series [2] deals with constitutive 20S proteasome beta5 subunit (Proteasome Macropain subunit MB1) (Homo sapiens, UniProt P28074). The series can be described thus: Ratio of kinact to Ki for human constitutive 20S proteasome beta5 subunit. The class given is ADME.
Series [3] has as its system Plasmodium falciparum.

In the case of `CCCCCC(=O)N[C@@H](C(=O)N[C@@H](CCCC)C(=O)N[C@@H](CC(C)C)C(=O)[C@@]1(C)CO1)C(C)C`, in series [1], the kinact at 4 h turned out to be 0.00062 s⁻¹. For the same molecule, in series [2], the kinact/KI came out at 15.8 M⁻¹ s⁻¹. Besides, the Kinact in series [3] was found to be 5.88 ×10⁻⁵ /s.

For `CCCCCC(=O)N[C@H](C(=O)N[C@@H](CCCC)C(=O)N[C@@H](CC(C)C)C(=O)[C@@]1(C)CO1)C(C)C`, the inactivation rate constant (kinact) at 4 h in series [1] came out at 0.00562 s⁻¹. Moreover, in series [2], the kinact/KI was found to be 1500 M⁻¹ s⁻¹. The Kinact in series [3] was 1.76 ×10⁻³ /s.
